Target: HCV NS3 protease (Hepatitis C virus genotype 1a (isolate H77) (HCV), UniProt P27958)
Assay: biochemical

Protein sequences, listed by entry. Tags and fused reporters are not part of them. Residues count along the entry.
UniProt P27958, 1027-1208: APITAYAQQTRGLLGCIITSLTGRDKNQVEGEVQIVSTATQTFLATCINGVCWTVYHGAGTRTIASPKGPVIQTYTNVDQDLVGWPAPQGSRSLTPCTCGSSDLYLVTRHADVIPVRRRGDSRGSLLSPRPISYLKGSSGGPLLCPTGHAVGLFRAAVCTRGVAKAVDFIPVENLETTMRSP

| SMILES | IC50 |
| --- | --- |
| CC(C)(C)OC(=O)N[C@H]1CCCCC/C=C\[C@@H]2C[C@@]2(C(=O)NS(=O)(=O)C2CC2)NC(=O)[C@@H]2CN(c3ccc(-c4ccccc4)cc3)CN2C1=O (stereo in doubt) [Example 60] | 2 nM |
| C=C[C@@H]1C[C@]1(NC(=O)[C@@H]1CN(Cc2ccccc2)CN1C(=O)[C@@H](NC(=O)OC1CCCC1)C(C)(C)C)C(=O)NS(=O)(=O)C1CC1 [Example 1] | 195 nM |
| C=C[C@@H]1C[C@]1(NC(=O)[C@@H]1CN(C(=O)Cc2ccccc2)CN1C(=O)[C@@H](NC(=O)OC1CCCC1)C(C)(C)C)C(=O)NS(=O)(=O)C1CC1 [Example 2] | 490 nM |
| C=C[C@@H]1C[C@]1(NC(=O)[C@@H]1CN(C(=O)OCc2ccccc2)CN1C(=O)[C@@H](NC(=O)OC1CCCC1)C(C)(C)C)C(=O)NS(=O)(=O)C1CC1 [Example 3] | 57 nM |
| C=C[C@@H]1C[C@]1(NC(=O)[C@@H]1CN(CC(=O)c2ccccc2)CN1C(=O)[C@@H](NC(=O)OC1CCCC1)C(C)(C)C)C(=O)NS(=O)(=O)C1CC1 [Example 4] | 21 nM |
| C=C[C@@H]1C[C@]1(NC(=O)[C@@H]1CN(CCc2ccccc2)CN1C(=O)[C@@H](NC(=O)OC1CCCC1)C(C)(C)C)C(=O)NS(=O)(=O)C1CC1 [Example 5] | 13 nM |
| C=C[C@@H]1C[C@]1(NC(=O)[C@@H]1CN(C(=O)c2ccccc2)CN1C(=O)[C@@H](NC(=O)OC1CCCC1)C(C)(C)C)C(=O)NS(=O)(=O)C1CC1 [Example 6] | 403 nM |
| C=C[C@@H]1C[C@]1(NC(=O)[C@@H]1CN(S(=O)(=O)c2ccccc2)CN1C(=O)[C@@H](NC(=O)OC1CCCC1)C(C)(C)C)C(=O)NS(=O)(=O)C1CC1 [Example 7] | 5 nM |
| C=C[C@@H]1C[C@]1(NC(=O)[C@@H]1CN(S(=O)(=O)c2ccccc2F)CN1C(=O)[C@@H](NC(=O)OC1CCCC1)C(C)(C)C)C(=O)NS(=O)(=O)C1CC1 [Example 8] | 11 nM |
| C=C[C@@H]1C[C@]1(NC(=O)[C@@H]1CN(S(=O)(=O)c2cccc(F)c2)CN1C(=O)[C@@H](NC(=O)OC1CCCC1)C(C)(C)C)C(=O)NS(=O)(=O)C1CC1 [Example 9] | 14 nM |
| C=C[C@@H]1C[C@]1(NC(=O)[C@@H]1CN(S(=O)(=O)c2ccc(F)cc2)CN1C(=O)[C@@H](NC(=O)OC1CCCC1)C(C)(C)C)C(=O)NS(=O)(=O)C1CC1 [Example 10] | 4 nM |
| C=C[C@@H]1C[C@]1(NC(=O)[C@@H]1CN(S(=O)(=O)c2ccc3ccccc3c2)CN1C(=O)[C@@H](NC(=O)OC1CCCC1)C(C)(C)C)C(=O)NS(=O)(=O)C1CC1 [Example 11] | 22 nM |
| C=C[C@@H]1C[C@]1(NC(=O)[C@@H]1CN(S(=O)(=O)c2cccc3ccccc23)CN1C(=O)[C@@H](NC(=O)OC1CCCC1)C(C)(C)C)C(=O)NS(=O)(=O)C1CC1 [Example 12] | 170 nM |
| C=C[C@@H]1C[C@]1(NC(=O)[C@@H]1CN(S(=O)(=O)c2cccc3cccnc23)CN1C(=O)[C@@H](NC(=O)OC1CCCC1)C(C)(C)C)C(=O)NS(=O)(=O)C1CC1 [Example 13] | 160 nM |
| C=C[C@@H]1C[C@]1(NC(=O)[C@@H]1CN(S(=O)(=O)c2ccc(Br)cc2)CN1C(=O)[C@@H](NC(=O)OC1CCCC1)C(C)(C)C)C(=O)NS(=O)(=O)C1CC1 [Example 14] | 2 nM |
| C=C[C@@H]1C[C@]1(NC(=O)[C@@H]1CN(S(=O)(=O)c2cccc(Br)c2)CN1C(=O)[C@@H](NC(=O)OC1CCCC1)C(C)(C)C)C(=O)NS(=O)(=O)C1CC1 [Example 15] | 32 nM |
| C=C[C@@H]1C[C@]1(NC(=O)[C@@H]1CN(S(=O)(=O)c2cnc(Cl)c(Br)c2)CN1C(=O)[C@@H](NC(=O)OC1CCCC1)C(C)(C)C)C(=O)NS(=O)(=O)C1CC1 [Example 16] | 68 nM |
| C=C[C@@H]1C[C@]1(NC(=O)[C@@H]1CN(S(=O)(=O)c2ccccc2Cl)CN1C(=O)[C@@H](NC(=O)OC1CCCC1)C(C)(C)C)C(=O)NS(=O)(=O)C1CC1 [Example 17] | 16 nM |
| C=C[C@@H]1C[C@]1(NC(=O)[C@@H]1CN(S(=O)(=O)c2cccc(Cl)c2)CN1C(=O)[C@@H](NC(=O)OC1CCCC1)C(C)(C)C)C(=O)NS(=O)(=O)C1CC1 [Example 18] | 28 nM |
| C=C[C@@H]1C[C@]1(NC(=O)[C@@H]1CN(S(=O)(=O)c2ccc(Cl)cc2)CN1C(=O)[C@@H](NC(=O)OC1CCCC1)C(C)(C)C)C(=O)NS(=O)(=O)C1CC1 [Example 19] | 2 nM |
| C=C[C@@H]1C[C@]1(NC(=O)[C@@H]1CN(S(=O)(=O)c2ccc(C#N)cc2)CN1C(=O)[C@@H](NC(=O)OC1CCCC1)C(C)(C)C)C(=O)NS(=O)(=O)C1CC1 [Example 20] | 6 nM |
| C=C[C@@H]1C[C@]1(NC(=O)[C@@H]1CN(S(=O)(=O)c2ccc(C(F)(F)F)cc2)CN1C(=O)[C@@H](NC(=O)OC1CCCC1)C(C)(C)C)C(=O)NS(=O)(=O)C1CC1 [Example 21] | 4 nM |
| C=C[C@@H]1C[C@]1(NC(=O)[C@@H]1CN(S(=O)(=O)c2ccc(OC)cc2)CN1C(=O)[C@@H](NC(=O)OC1CCCC1)C(C)(C)C)C(=O)NS(=O)(=O)C1CC1 [Example 22] | 2 nM |
| C=C[C@@H]1C[C@]1(NC(=O)[C@@H]1CN(S(=O)(=O)c2cccs2)CN1C(=O)[C@@H](NC(=O)OC1CCCC1)C(C)(C)C)C(=O)NS(=O)(=O)C1CC1 [Example 23] | 6 nM |

| SMILES | IC50 |
| --- | --- |
| C=C[C@@H]1C[C@]1(NC(=O)[C@@H]1CN(S(=O)(=O)c2ccsc2)CN1C(=O)[C@@H](NC(=O)OC1CCCC1)C(C)(C)C)C(=O)NS(=O)(=O)C1CC1 [Example 24] | 3 nM |
| C=C[C@@H]1C[C@]1(NC(=O)[C@@H]1CN(S(=O)(=O)Cc2ccccc2)CN1C(=O)[C@@H](NC(=O)OC1CCCC1)C(C)(C)C)C(=O)NS(=O)(=O)C1CC1 [Example 25] | 14 nM |
| C=C[C@@H]1C[C@]1(NC(=O)[C@@H]1CN(C(=O)Nc2ccccc2)CN1C(=O)[C@@H](NC(=O)OC1CCCC1)C(C)(C)C)C(=O)NS(=O)(=O)C1CC1 [Example 26] | 640 nM |
| C=C[C@@H]1C[C@]1(NC(=O)[C@@H]1CN(S(=O)(=O)Nc2ccccc2)CN1C(=O)[C@@H](NC(=O)OC1CCCC1)C(C)(C)C)C(=O)NS(=O)(=O)C1CC1 [Example 27] | 61 nM |
| C=C[C@@H]1C[C@]1(NC(=O)[C@@H]1CN(c2ccccc2)CN1C(=O)[C@@H](NC(=O)OC1CCCC1)C(C)(C)C)C(=O)NS(=O)(=O)C1CC1 [Example 28] | 19 nM |
| C=C[C@@H]1C[C@]1(NC(=O)[C@@H]1CN(c2ccc(Br)cc2)CN1C(=O)[C@@H](NC(=O)OC1CCCC1)C(C)(C)C)C(=O)NS(=O)(=O)C1CC1 [Example 29] | 41 nM |
| C=C[C@@H]1C[C@]1(NC(=O)[C@@H]1CN(c2cccc(-c3ccccc3)c2)CN1C(=O)[C@@H](NC(=O)OC1CCCC1)C(C)(C)C)C(=O)NS(=O)(=O)C1CC1 [Example 30] | 13 nM |
| C=C[C@@H]1C[C@]1(NC(=O)[C@@H]1CN(c2ccc(N3CCCCC3)cc2)CN1C(=O)[C@@H](NC(=O)OC1CCCC1)C(C)(C)C)C(=O)NS(=O)(=O)C1CC1 [Example 31] | 9 nM |
| C=C[C@@H]1C[C@]1(NC(=O)[C@@H]1CN(c2ccc(N3CCOCC3)cc2)CN1C(=O)[C@@H](NC(=O)OC1CCCC1)C(C)(C)C)C(=O)NS(=O)(=O)C1CC1 [Example 32] | 10 nM |
| C=C[C@@H]1C[C@]1(NC(=O)[C@@H]1CN(c2ccc(-n3cccn3)cc2)CN1C(=O)[C@@H](NC(=O)OC1CCCC1)C(C)(C)C)C(=O)NS(=O)(=O)C1CC1 [Example 33] | 9 nM |
| C=C[C@@H]1C[C@]1(NC(=O)[C@@H]1CN(c2ccc(-c3ccccc3)cc2)CN1C(=O)[C@@H](NC(=O)OC1CCCC1)C(C)(C)C)C(=O)NS(=O)(=O)C1CC1 [Example 34] | 2 nM |
| C=C[C@@H]1C[C@]1(NC(=O)[C@@H]1CN(c2ccc(OC)cc2)CN1C(=O)[C@@H](NC(=O)OC1CCCC1)C(C)(C)C)C(=O)NS(=O)(=O)C1CC1 [Example 35] | 12 nM |
| C=C[C@@H]1C[C@]1(NC(=O)[C@@H]1CN(c2ccc(C(C)C)cc2)CN1C(=O)[C@@H](NC(=O)OC1CCCC1)C(C)(C)C)C(=O)NS(=O)(=O)C1CC1 [Example 36] | 16 nM |
| C=C[C@@H]1C[C@]1(NC(=O)[C@@H]1CN(c2ccc3ccccc3c2)CN1C(=O)[C@@H](NC(=O)OC1CCCC1)C(C)(C)C)C(=O)NS(=O)(=O)C1CC1 [Example 37] | 12 nM |
| C=C[C@@H]1C[C@]1(NC(=O)[C@@H]1CN(c2ccc(C3CCCCC3)cc2)CN1C(=O)[C@@H](NC(=O)OC1CCCC1)C(C)(C)C)C(=O)NS(=O)(=O)C1CC1 [Example 38] | 5 nM |
| C=C[C@@H]1C[C@]1(NC(=O)[C@@H]1CN(c2ccc(-c3ccccc3OC)cc2)CN1C(=O)[C@@H](NC(=O)OC1CCCC1)C(C)(C)C)C(=O)NS(=O)(=O)C1CC1 [Example 39] | 21 nM |
| C=C[C@@H]1C[C@]1(NC(=O)[C@@H]1CN(c2ccc(-c3ccccc3F)cc2)CN1C(=O)[C@@H](NC(=O)OC1CCCC1)C(C)(C)C)C(=O)NS(=O)(=O)C1CC1 [Example 40] | 34 nM |
| C=C[C@@H]1C[C@]1(NC(=O)[C@@H]1CN(c2ccc(-c3ccccc3C)cc2)CN1C(=O)[C@@H](NC(=O)OC1CCCC1)C(C)(C)C)C(=O)NS(=O)(=O)C1CC1 [Example 41] | 39 nM |
| C=C[C@@H]1C[C@]1(NC(=O)[C@@H]1CN(c2ccc(-c3cccc(F)c3)cc2)CN1C(=O)[C@@H](NC(=O)OC1CCCC1)C(C)(C)C)C(=O)NS(=O)(=O)C1CC1 [Example 42] | 82 nM |
| C=C[C@@H]1C[C@]1(NC(=O)[C@@H]1CN(c2ccc(-c3ccc(F)cc3)cc2)CN1C(=O)[C@@H](NC(=O)OC1CCCC1)C(C)(C)C)C(=O)NS(=O)(=O)C1CC1 [Example 43] | 45 nM |
| C=C[C@@H]1C[C@]1(NC(=O)[C@@H]1CN(c2ccc(-c3ccsc3)cc2)CN1C(=O)[C@@H](NC(=O)OC1CCCC1)C(C)(C)C)C(=O)NS(=O)(=O)C1CC1 [Example 44] | 40 nM |
| C=C[C@@H]1C[C@]1(NC(=O)[C@@H]1CN(c2ccc(-c3cncnc3)cc2)CN1C(=O)[C@@H](NC(=O)OC1CCCC1)C(C)(C)C)C(=O)NS(=O)(=O)C1CC1 [Example 45] | 45000 nM |
| C=C[C@@H]1C[C@]1(NC(=O)[C@@H]1CN(c2ccc(-c3ccc(OC)cc3)cc2)CN1C(=O)[C@@H](NC(=O)OC1CCCC1)C(C)(C)C)C(=O)NS(=O)(=O)C1CC1 [Example 46] | 66 nM |
| C=C[C@@H]1C[C@]1(NC(=O)[C@@H]1CN(c2ccc(-c3cccc(OC)c3)cc2)CN1C(=O)[C@@H](NC(=O)OC1CCCC1)C(C)(C)C)C(=O)NS(=O)(=O)C1CC1 [Example 47] | 110 nM |

Source: US8476225B2, “Antiviral compounds” (Gilead Sciences, Inc., priority 2009, dated 2013)
